# Data taken from patent US4794170A (priority 1984, dated 1988).
# Where two headings read alike, the source gives them in different places.
# Legend:
# [1] = Solubility and molar ratio after lyophilization and storage; format: physicochemical; conditions: for solubility, conjugate stored at 0-4° C. or at room temperature: yes/no, after lyophilization
# [2] = system: receptors of the hepatocytes specific for the proteins ending with the galactose; assay: Disappearance from plasma of [14C]asialofetuine (AF) in the mouse; format: in vivo, mice (female Swiss); conditions: for radioactivity of plasma after injection with [14C]AF: 2 μg/g i.v. with 2 μg/g 14C AF, after 10 minutes, average ± S.E. from 10 mice
# [3] = Solubility of the lyophilized conjugate in physiological solution; format: physicochemical
# [4] = Polymerization after lyophilization (polyacrylamide gel electrophoresis with sodium dodecylsulfate); format: physicochemical
# [5] = system: cellular DNA in the intestine; conditions: mouse, in vivo
# [6] = system: cellular DNA in the medulla ossium; conditions: mouse, in vivo
# [7] = mouse, in vivo, iv
# hepatocytes = conditions: cited from earlier work
# [8] = prior method, acidic pH 5.3-5.5, cited from earlier work
# [9] = conjugate prepared with homologue albumin; mouse; cited from earlier work
substance,measurement,setting,value
"conjugate 12: L20-HSA, ECDI, ara-AMP 144, carbodiimide 261, pH 7.5, 25° C., 24 hours, molar ratio 11","solubility, conjugate stored at 0-4° C. or at room temperature",[1],yes
"conjugate 2: L31-HSA, ECDI, ara-AMP 288, carbodiimide 522, pH 7.5, 25° C., 24 hours, molar ratio 20","solubility, conjugate stored at 0-4° C. or at room temperature",[1],yes
L31 -HSA: non conjugated lactosaminated human albumin [reference compound],radioactivity of plasma after injection with [14C]AF,[2],"9,446 ± 1,462 dpm/ml of plasma"
same,inhibition of the disappearance of radioactive asialofetuine from plasma,"[2]; in words, conjugate vs equal amount of non conjugated L31 HSA",competitively inhibited at the same rate
"conjugate 13: L51-HSA, ECDI, ara-AMP 144, carbodiimide 261, pH 7.5, 25° C., 24 hours, molar ratio 12","solubility, conjugate stored at 0-4° C. or at room temperature",[1],yes
"conjugate 5: L31-HSA, MorfoCDI, ara-AMP 144, carbodiimide 261, pH 7.5, 25° C., 24 hours, molar ratio 12","solubility, conjugate stored at 0-4° C. or at room temperature",[1],yes
"conjugate 6: L31-HSA, ECDI, ara-AMP 144, carbodiimide 261, pH 5.5, 25° C., 24 hours, molar ratio 16","solubility, conjugate stored at 0-4° C. or at room temperature",[1],no
"conjugate 7: L31-HSA, ECDI, ara-AMP 144, carbodiimide 261, pH 6.5, 25° C., 24 hours, molar ratio 11; partially precipitates during the conjugation","solubility, conjugate stored at 0-4° C. or at room temperature",[1],no
"conjugate 11: L31-HSA, ECDI, ara-AMP 144, carbodiimide 261, pH 7.5, 25° C., 8 hours, molar ratio 11","solubility, conjugate stored at 0-4° C. or at room temperature",[1],yes
"conjugate 1: conjugate of ara-AMP with L31-HSA, ECDI, pH 7.5, 25° C., 24 hours, molar ratio 14",radioactivity of plasma after injection with [14C]AF,[2],"11,275 ± 1,194 dpm/ml of plasma"
same,capacity of L-HSA of interacting with the hepatocyte receptors after conjugation with ara-AMP,[2]; in words,does not affect the capacity of L-HSA of interacting with the receptors of the hepatocytes
same,solubility in physiological solution (0.9% NaCl),"[3]; lyophilized conjugate, maximum tested concentration",≥ 100 mg/ml
same,molar ratio ara-AMP/L-HSA on storage,"[1]; 0°-4° C. or room temperature, at least up to 4 months (maximum time tested)",do not decrease
same,"solubility, conjugate stored at 0-4° C. or at room temperature",[1],yes
same,change of percentages of L-HSA monomer and oligomers,[4]; 4 months after the lyophilization,do not change
same,polymerization after lyophilization,[4]; in words,does not undergo a polymerization after lyophilization
same,inhibition of DNA synthesis in the intestine,[5],without causing inhibition in the other two organs
same,Inhibition of the DNA synthesis % M. ossium,[6],0%
same,inhibition of DNA synthesis in the medulla ossium,[6],without causing inhibition in the other two organs
same,curve of body weight increase and of food consumption,[7],equal to that of control mice
same,evident sign of toxicity,[7],does not cause any evident sign of toxicity
L-SA: lactosaminated albumin which penetrates only in the hepatic parenchima cells,cell penetration,hepatocytes; in words,penetrates only in the hepatic parenchima cells
"conjugate 4: L31-HSA, ECDI, ara-AMP 144, carbodiimide 130, pH 7.5, 25° C., 24 hours, molar ratio 11","solubility, conjugate stored at 0-4° C. or at room temperature",[1],yes
L-SA-ara-AMP: ara AMP conjugated with lactosaminated albumin; prior method based on conjugation of activated ara-AMP in acidic environment (pH 5.3-5.5),time to become insoluble after lyophilization,[8]; 0° to 4° C.,less than one
same,time to become insoluble after lyophilization,"[8]; -20° C., in words",some weeks
same,immunogenicity,[9],not immunogenic
same,distribution of ara-AMP after administration,"hepatocytes; mouse, in vivo","concentrated, in its pharmacologically active form in the hepatocytes"
"conjugate 10: L31-HSA, ECDI, ara-AMP 144, carbodiimide 261, pH 7.5, 35° C., 24 hours, molar ratio 9","solubility, conjugate stored at 0-4° C. or at room temperature",[1],yes
"conjugate 8: L31-HSA, ECDI, ara-AMP 144, carbodiimide 261, pH 8.5, 25° C., 24 hours, molar ratio 10","solubility, conjugate stored at 0-4° C. or at room temperature",[1],yes
"2: conjugate of ara-AMP with L30-HSA, carbodiimide, pH 7.5, dialized against 0.3% NaCl and lyophilized with NaCl [Example 2]",concentration of solution of lyophilized preparation,"[3]; 109 mg lyophilized preparation dissolved with 1 ml H2O, physiological solution (0.9% NaCl)",100 mg of conjugate in 1 ml
same,solubility of lyophilized preparation,"[3]; in words, 109 mg with 1 ml H2O",optimum
"conjugate 9: L31-HSA, ECDI, ara-AMP 144, carbodiimide 261, pH 9.5, 25° C., 24 hours, molar ratio 5","solubility, conjugate stored at 0-4° C. or at room temperature",[1],yes
"conjugate 3: L31-HSA, ECDI, ara-AMP 72, carbodiimide 130, pH 7.5, 25° C., 24 hours, molar ratio 10","solubility, conjugate stored at 0-4° C. or at room temperature",[1],yes
